Literature values, collected in patent US20260139007A1, “EPHA4 ANTAGONISTS AND USES THEREOF” (SANFORD BURNHAM PREBYS MEDICAL DISCOVERY INSTITUTE, priority 2023, published 2026).

The chains behind the UniProt entries cited, without tags or fusion partners. Residues count along the entry.
UniProt P02768, 25-609: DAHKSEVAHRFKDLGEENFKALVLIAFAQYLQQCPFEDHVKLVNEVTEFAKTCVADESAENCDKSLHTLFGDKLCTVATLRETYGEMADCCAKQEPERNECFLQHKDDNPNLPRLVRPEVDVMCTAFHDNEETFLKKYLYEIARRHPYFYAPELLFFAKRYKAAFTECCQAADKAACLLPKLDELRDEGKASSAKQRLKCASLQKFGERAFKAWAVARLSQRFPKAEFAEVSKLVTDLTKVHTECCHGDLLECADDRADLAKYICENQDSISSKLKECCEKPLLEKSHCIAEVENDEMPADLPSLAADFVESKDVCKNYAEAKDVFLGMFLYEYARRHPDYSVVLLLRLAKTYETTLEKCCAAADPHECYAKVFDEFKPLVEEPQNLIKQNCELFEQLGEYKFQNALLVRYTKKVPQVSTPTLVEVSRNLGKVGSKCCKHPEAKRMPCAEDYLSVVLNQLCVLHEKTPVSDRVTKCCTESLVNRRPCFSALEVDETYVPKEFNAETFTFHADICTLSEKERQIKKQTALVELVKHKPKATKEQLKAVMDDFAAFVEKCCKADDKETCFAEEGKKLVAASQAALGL

Molecular target: human serum albumin (Homo sapiens, UniProt P02768)
Conditions: cited from earlier work

Q: For RLIEDICLPRWGCLWEDD [SA21], which Kd is on record?
A: 470 nM
